Source: US11167037B2, “Antibody drug conjugate platform using bispecific antibody” (SEOUL NATIONAL UNIVERSITY R&DB FOUNDATION, priority 2016, dated 2021)

System: A549 cells
Assay: Cell viability assay (Cell Titer-Glo, 72 hrs)
Assay type: cell-based, human
Experimental: A549 cells were seeded in 50 μL RPMI-1640 medium in black-walled 96-well plates (4,000 cells per well) and allowed to adhere overnight at 37° C. in 5% CO2 and humidified atmosphere. […] In the control experiments, instead of ERC6, palivizumab (Boehringer Ingelheim Pharma), or cetuximab (Merck K GaA) was used. The cotinine-duocarmycin and antibody dilutes in 50 μL medium were added to each well, and cultured for 72 hrs. After adding Cell Titer-Glo reagent (Promega Corp.) to each well, luminescence signals were measured using a microplate luminometer (PerkinElmer, Waltham, Mass., USA) according to the manufacturer's instructions. All experiments were conducted in triplicate. The relative cell viability was calculated by dividing by the control luminescence signal [% viability=(Test−Background)/(Control−Background)×100].

cetuximab
cytotoxic / anti-proliferative effect (relative cell viability): could not significantly inhibit the proliferation
